Experimental data: US20140296190A1, “MARKETING THE USE OF 25-HYDROXYVITAMIN D3 TO ENHANCE COGNITION” (DSM IP ASSETS B.V., priority 2013, published 2014)
Where two headings read alike, the source gives them in different places.

Settings: 127 frail elderly, baseline, P=0.30

Vitamin D
Correlation of vitamin D intake with serum 25-OH D3, r: 0.09
Correlation of vitamin D intake with serum 25-OH D3, r (listed as vitamin D): low
